Results from article PMC7834738 (Molecular Therapy, 2020).
Values joined by “and” are separate entries in the source; they are usually repeats but may differ in a detail not shown here. Equal values may be shown once.

System: SARS-CoV-2 (USA_WA1/2020)
Assay type: cell-based

CC(=O)Oc1ccccc1C(=O)Nc1ncc([N+](=O)[O-])s1 [Nitazoxanide] was tested, and the “concentration at which synergy with remdesivir was observed” value was > 1.25 μM and > 0.383 mg/L.
